The values below are quoted from earlier work in article PMC11854596.

Protein sequences, listed by entry. Tags and fused reporters are not part of them. Lines headed by an entry give the natural chain unless they say otherwise; changes in a name come on top.
UniProt P61077: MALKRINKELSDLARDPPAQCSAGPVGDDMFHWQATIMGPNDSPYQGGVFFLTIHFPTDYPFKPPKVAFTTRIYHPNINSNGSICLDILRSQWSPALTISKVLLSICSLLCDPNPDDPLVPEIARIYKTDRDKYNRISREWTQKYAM

pKd: −log10 of the molar value.

By pKd is commonly meant the Kd on a negative log10 scale, so that one unit is a factor of ten.

The target in the data set is UbcH5c (Homo sapiens) (UniProt P61077).

Regarding ubiquitin (from UniProt P0CG48), the pKd was 3.52.
